From ChEMBL document CHEMBL4342520, “Discovery, Structure-Activity Relationship, and Biological Activity of Histone-Competitive Inhibitors of Histone Acetyltransferases P300/CBP” (J Med Chem, 2020)

Chains of the proteins cited; added tags and fusions are not shown.
UniProt Q09472, whole entry, looked up: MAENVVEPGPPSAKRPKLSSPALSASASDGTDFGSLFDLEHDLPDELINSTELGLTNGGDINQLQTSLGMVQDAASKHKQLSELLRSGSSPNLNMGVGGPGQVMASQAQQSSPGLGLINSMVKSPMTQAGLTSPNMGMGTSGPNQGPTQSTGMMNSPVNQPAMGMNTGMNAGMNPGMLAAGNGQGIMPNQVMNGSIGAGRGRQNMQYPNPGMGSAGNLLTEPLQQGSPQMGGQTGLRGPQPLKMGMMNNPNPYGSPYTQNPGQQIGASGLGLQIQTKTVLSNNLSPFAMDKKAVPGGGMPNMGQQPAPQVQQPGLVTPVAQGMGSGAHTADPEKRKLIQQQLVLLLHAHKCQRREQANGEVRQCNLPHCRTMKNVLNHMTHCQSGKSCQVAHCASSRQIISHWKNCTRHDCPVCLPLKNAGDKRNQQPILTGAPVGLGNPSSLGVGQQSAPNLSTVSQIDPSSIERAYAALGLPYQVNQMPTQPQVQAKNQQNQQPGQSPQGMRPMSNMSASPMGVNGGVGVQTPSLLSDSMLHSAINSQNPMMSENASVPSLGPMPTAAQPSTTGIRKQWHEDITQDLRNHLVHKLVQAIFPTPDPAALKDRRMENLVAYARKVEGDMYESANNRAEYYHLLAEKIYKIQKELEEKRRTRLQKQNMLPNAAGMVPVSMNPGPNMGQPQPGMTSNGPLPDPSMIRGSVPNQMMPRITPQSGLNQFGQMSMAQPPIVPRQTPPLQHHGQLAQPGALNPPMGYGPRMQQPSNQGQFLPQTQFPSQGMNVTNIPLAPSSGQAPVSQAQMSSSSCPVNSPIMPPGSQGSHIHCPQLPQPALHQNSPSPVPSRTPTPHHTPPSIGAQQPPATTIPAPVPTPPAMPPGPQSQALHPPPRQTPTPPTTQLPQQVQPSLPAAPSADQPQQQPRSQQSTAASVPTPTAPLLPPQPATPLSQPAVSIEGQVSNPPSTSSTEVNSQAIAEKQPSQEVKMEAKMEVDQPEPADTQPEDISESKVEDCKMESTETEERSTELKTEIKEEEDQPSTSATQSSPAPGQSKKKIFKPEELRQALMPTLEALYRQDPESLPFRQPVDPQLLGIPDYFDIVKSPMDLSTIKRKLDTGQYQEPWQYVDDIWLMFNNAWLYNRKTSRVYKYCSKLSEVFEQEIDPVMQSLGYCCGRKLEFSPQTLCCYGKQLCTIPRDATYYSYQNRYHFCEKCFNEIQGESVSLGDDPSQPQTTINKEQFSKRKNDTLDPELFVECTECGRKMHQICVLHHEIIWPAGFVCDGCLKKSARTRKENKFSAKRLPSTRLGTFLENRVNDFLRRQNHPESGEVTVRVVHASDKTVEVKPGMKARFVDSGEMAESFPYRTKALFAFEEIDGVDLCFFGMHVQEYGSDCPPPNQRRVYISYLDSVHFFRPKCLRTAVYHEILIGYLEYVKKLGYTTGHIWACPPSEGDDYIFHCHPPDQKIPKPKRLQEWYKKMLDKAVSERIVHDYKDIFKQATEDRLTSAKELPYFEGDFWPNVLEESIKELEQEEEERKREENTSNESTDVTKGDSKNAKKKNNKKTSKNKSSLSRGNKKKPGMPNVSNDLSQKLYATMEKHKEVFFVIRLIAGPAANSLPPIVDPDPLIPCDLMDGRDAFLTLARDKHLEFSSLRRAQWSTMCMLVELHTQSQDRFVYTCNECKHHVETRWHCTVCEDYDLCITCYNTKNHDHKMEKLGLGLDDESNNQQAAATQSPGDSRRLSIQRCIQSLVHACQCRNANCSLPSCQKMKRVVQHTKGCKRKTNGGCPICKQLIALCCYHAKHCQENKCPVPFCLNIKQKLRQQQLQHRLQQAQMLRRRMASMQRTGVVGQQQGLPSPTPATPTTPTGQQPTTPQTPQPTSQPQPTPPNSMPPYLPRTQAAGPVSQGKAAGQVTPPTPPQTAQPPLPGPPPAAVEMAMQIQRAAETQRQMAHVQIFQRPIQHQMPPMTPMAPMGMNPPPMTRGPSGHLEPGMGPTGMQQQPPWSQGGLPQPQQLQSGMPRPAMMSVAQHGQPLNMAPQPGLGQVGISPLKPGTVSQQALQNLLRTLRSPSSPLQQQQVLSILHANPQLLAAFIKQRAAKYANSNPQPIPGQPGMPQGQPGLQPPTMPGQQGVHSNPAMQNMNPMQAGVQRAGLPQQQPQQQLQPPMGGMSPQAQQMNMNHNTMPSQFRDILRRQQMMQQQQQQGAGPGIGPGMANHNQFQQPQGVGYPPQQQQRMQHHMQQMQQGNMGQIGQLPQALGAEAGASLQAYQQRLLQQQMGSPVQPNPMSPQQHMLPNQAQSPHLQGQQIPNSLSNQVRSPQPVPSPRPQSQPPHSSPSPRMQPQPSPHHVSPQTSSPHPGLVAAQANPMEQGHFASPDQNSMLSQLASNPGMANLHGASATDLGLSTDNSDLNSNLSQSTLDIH
UniProt Q92793, whole entry, looked up: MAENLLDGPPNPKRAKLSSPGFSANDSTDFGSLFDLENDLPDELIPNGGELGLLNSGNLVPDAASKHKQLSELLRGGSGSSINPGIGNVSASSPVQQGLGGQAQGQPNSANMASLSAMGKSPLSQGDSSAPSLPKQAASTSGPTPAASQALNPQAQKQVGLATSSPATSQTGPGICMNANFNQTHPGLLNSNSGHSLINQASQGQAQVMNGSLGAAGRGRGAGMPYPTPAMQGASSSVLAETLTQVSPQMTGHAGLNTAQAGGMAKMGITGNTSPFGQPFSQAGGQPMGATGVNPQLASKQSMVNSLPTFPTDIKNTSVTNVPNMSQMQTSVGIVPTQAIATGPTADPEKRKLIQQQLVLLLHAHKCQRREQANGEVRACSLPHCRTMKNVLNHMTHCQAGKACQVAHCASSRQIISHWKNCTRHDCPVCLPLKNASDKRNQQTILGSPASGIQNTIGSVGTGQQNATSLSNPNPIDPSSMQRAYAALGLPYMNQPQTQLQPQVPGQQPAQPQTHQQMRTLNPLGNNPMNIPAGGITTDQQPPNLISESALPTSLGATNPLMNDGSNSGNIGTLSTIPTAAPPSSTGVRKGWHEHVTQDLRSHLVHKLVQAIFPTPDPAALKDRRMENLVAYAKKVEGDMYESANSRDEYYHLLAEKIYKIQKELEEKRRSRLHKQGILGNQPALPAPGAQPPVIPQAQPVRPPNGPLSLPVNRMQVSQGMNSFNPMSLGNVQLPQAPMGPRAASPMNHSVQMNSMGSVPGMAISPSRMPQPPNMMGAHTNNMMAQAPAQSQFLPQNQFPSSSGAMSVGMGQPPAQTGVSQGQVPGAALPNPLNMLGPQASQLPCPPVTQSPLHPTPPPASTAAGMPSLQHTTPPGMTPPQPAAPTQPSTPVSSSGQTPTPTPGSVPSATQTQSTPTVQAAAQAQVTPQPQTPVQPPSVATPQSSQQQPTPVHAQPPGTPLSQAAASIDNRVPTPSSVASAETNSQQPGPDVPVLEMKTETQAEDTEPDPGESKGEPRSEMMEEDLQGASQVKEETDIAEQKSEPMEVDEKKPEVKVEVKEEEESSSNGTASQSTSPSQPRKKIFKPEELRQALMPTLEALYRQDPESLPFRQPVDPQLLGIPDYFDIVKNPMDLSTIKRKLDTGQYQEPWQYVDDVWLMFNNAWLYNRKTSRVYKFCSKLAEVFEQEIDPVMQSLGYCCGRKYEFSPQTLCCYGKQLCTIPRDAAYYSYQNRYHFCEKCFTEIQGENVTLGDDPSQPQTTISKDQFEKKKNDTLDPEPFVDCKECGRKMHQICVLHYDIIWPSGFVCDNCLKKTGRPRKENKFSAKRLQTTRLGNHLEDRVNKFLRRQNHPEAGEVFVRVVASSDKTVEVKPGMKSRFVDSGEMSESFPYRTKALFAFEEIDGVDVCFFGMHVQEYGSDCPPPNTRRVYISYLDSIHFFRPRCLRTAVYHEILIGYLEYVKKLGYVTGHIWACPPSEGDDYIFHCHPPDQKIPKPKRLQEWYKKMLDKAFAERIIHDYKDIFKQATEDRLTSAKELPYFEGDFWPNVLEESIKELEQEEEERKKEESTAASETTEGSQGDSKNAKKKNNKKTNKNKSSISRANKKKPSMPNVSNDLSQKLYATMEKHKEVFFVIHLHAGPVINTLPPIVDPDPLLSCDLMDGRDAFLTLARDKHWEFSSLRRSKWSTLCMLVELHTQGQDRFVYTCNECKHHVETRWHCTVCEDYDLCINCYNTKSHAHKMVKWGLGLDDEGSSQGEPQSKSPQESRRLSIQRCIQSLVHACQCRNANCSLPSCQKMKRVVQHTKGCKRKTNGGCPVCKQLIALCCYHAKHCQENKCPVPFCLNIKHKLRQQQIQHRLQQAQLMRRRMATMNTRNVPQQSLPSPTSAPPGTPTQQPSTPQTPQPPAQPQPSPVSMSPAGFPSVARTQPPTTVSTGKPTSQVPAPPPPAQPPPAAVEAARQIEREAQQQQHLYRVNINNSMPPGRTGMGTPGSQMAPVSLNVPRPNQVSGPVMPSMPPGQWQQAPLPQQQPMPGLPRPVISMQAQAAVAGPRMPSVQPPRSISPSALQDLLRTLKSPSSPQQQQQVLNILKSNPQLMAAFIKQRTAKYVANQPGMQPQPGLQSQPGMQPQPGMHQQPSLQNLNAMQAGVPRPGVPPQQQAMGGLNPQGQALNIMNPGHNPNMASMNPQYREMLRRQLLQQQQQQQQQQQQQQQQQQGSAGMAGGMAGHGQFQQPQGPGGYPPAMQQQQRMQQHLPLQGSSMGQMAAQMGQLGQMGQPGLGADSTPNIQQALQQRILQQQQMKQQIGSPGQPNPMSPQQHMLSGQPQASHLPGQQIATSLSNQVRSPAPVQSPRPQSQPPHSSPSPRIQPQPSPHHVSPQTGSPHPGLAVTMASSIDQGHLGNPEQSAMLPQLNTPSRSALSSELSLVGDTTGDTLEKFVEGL

Experiments:
Conditions in all cases: 0.08 to 10 uM
[1] = molecular target: T1, CREB-binding protein/Histone acetyltransferase p300 (Homo sapiens) (UniProt Q09472+Q92793)
[2] = molecular target: T1, CREB-binding protein/Histone acetyltransferase p300 (Homo sapiens); remark: listed apart in the source
[3] = molecular target: T1, CREB-binding protein/Histone acetyltransferase p300 (Homo sapiens); remark: listed apart in the source

Measured: inhibition

CNC(=O)Nc1ccc2c(c1)CC[C@@]21OC(=O)N(CC(=O)N(Cc2ccc(F)cc2)[C@@H](C)C(F)(F)F)C1=O
active: all assays above

Active and inactive are the calls of the source.
